From patent US5030451A, “Topical slenderizing formulation containing cafeine carboxylic acid derivatives neutralized by organic bases, preparation thereof, and their use in the treatment of cellulite” (Pierre Fabre S.A., priority 1988, dated 1991)

How the values were obtained:
[1] = in water
[2] = carbon 14 labelled; salifying agent is an organic base

Row | Substance | Solubility [1] | rate of transcutaneous passage [2]
1 | 3-nicotinol caffeine carboxylate [Preparation 1] | 2% | faster
2 | Creatinol caffeine carboxylate [Preparation 5] | 12% | –
